The record followed here is patent US9701713B2, “Compositions and methods for introduction of macromolecules into cells” (The Regents of the University of Colorado, a body corporate, priority 2011, dated 2017).

By UniProt entry, the sequences of proteins in these tests, tags left out. Where a name states a change or a piece, a line headed by the entry shows the natural chain unless it says otherwise.
UniProt P07315: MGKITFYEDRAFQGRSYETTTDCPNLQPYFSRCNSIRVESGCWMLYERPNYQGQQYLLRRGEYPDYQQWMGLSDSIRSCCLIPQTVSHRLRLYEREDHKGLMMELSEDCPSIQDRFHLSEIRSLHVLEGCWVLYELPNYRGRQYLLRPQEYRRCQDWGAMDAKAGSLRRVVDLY

The target in the experiment is T1, T5P γ-crystallin-GFP fusion protein (Homo sapiens, UniProt P07315, T5P).
T1 construct: expressed in transfected cells
T1 sequence (P07315 1-174 T5P): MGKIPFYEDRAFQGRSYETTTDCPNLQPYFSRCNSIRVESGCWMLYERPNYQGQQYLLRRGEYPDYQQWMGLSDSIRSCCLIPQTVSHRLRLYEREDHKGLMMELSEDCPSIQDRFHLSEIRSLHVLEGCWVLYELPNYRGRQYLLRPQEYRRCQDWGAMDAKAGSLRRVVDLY
Kind of experiment: Tissue culture model of aggregation-prone T5P γ-crystallin-GFP fusion. Type of experiment: cell-based. To be noted: cells expressing T5P γ-crystallin-GFP. On the procedure: A tissue culture model system was tested using an endogenous target of alpha crystallin. Human gamma crystallin, either in its wild type form (γ-crystallin) or in an aggregation-prone mutant form (T5P γ-crystallin), was expressed as a fusion with green fluorescent protein (GFP).

B1: alpha crystallin: alpha crystallin with chaperone-like activity applied to cells; b52 and b54 name it αA crystallin (protein, UniProt P02489 1-173, looked up)
Alpha-crystallin A chain: MDVTIQHPWFKRTLGPFYPSRLFDQFFGEGLFEYDLLPFLSSTISPYYRQSLFRTVLDSGISEVRSDRDKFVIFLDVKHFSPEDLTVKVQDDFVEIHGKHNERQDDHGYISREFHRRYRLPSNVDQSALSCSLSADGMLTFCGPKIQTGLDATHAERAIPVSREEKPTSAPSS
For B1, the “fluorescence of T5P-GFP fusion protein (prevention of aggregation)” value is “prevented the loss of fluorescence”.
